Here are results for eight compounds from patent publication US4352810A, “1-Substituted hydroxyiminomethyl-pyridinium salts, with an activity against organophosphate poisonings” (dated 1982).

Chains of the proteins cited; added tags and fusions are not shown. Residues count along the entry.
UniProt P23795, 31-614 isoform 2 limits assumed: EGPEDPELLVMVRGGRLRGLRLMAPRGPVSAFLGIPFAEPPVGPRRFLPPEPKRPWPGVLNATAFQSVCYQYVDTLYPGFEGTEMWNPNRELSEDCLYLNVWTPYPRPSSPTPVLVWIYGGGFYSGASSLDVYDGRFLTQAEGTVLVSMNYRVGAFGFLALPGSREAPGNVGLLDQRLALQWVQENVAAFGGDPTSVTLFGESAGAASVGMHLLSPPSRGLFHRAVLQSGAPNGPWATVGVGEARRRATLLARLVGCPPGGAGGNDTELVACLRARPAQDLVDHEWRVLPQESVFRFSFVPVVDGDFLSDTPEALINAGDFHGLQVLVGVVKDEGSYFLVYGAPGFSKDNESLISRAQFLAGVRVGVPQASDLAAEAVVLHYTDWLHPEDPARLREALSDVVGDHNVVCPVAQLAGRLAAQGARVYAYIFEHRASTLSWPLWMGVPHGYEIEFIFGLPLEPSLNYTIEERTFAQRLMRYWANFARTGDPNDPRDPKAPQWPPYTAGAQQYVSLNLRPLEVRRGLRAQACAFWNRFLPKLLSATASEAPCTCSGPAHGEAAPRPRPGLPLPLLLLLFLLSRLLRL

A value given as a limit tells only on which side of the number the result lay.

The assay concerns the target tabun-inhibited acetylcholinesterase (Bos taurus, UniProt P23795). The settings on record: 10 μM; for kobs, velocity constant of the reactivation process: pH 7.5, 25° C. (Table B); for % react after 2h / % react, percentage reactivation after 24 hours (footnote a): pH 7.5, 25° C.; for % react after 2h: 2 hours (Table B); for % react, percentage reactivation after 24 hours (footnote a): 24 hours (Table B).

Turning to `ON=Cc1cccc[n+]1C(c1ccccc1)c1ccccc1`, the “kobs, velocity constant of the reactivation process” value (shortened to “kobs, velocity constant”) is 1.06 ± 0.04 10^-3 min^-1 and the “% react after 2h” value amounted to 7%.

`ON=Cc1cccc[n+]1Cc1ccccc1`: the “kobs, velocity constant” value is recorded as 5.83 ± 0.09 10^-3 min^-1 and the “% react after 2h” value was determined as 41%.

With `ON=Cc1cc[n+](Cc2ccccn2)cc1`, the “kobs, velocity constant” value is < 0.1 10^-3 min^-1 and the “% react, percentage reactivation after 24 hours (footnote a)” value is 3%.

Consider `Cc1ccccc1C[n+]1ccccc1C=NO`, for which the “kobs, velocity constant” value was 1.6 ± 0.1 10^-3 min^-1 and the “% react after 2h” value is given as 13%.

Take `ON=Cc1cccc[n+]1Cc1ccc(C[n+]2ccccc2C=NO)cc1`: the “kobs, velocity constant” value is 1.38 ± 0.06 10^-3 min^-1 and the “% react after 2h” value was determined as 12%.

As to `ON=Cc1cc[n+](Cc2ccc(C[n+]3ccc(C=NO)cc3)cc2)cc1`, the “kobs, velocity constant” value is given as “no first order” and the “% react after 2h” value is listed as 33%.

In the case of `Cc1ccc(C[n+]2ccccc2C=NO)cc1`, the “kobs, velocity constant” value is listed as 3.44 ± 0.06 10^-3 min^-1 and the “% react after 2h” value was found to be 28%.

For the compound `ON=Cc1cc[n+](Cc2ccccc2)cc1`, the “kobs, velocity constant” value was < 0,1 10^-3 min^-1 and the “% react, percentage reactivation after 24 hours (footnote a)” value was found to be 3%.
